Drawing on article doi:10.1101/2021.11.22.469547, this text covers effective 2D affinity AcKa and fold of the affinity of CD4 for E8 TCR-engaged pMHC over that for free pMHC for 1 substance.

This test concerns the target TPI:HLA-DR1 on THP-1 cells (IFN-γ treated, pulsed with TPI peptide) (human (endogenous in THP-1) | not stated). Nature of the test: BFP adhesion frequency assay.

Consider “wild-type (WT) CD4 ectodomain, biotinylated (from UniProt P01730 26-396) (domain or fragment)”, for which the effective 2D affinity AcKa is 4.57e-06 μm^4 and the fold of the affinity of CD4 for E8 TCR-engaged pMHC over that for free pMHC came to 1820 fold.
